We go through 33 compounds from PubChem BioAssay AID662 (National Center for Advancing Translational Sciences (NCATS), 2007).

This test is described as follows: Cell signaling CRE-BLA (Fsk stim). Note: % of control where 0% means no effect. The following applies: CHO CRE-bla reporter (cAMP response element driving beta-lactamase), forskolin EC10, beta-lactamase ratio. An excerpt: NIH Molecular Libraries Screening Centers Network [MLSCN]
NIH Chemical Genomics Center [NCGC]
Assay Provider: Marshall W. Nirenberg, U.S. National heart lung & blood institute
Memories persist for different lengths of time, from seconds or minutes to a lifetime. There are two kinds of memory: short-term memory (STM) and long-term memory (LTM). STM lasts for minutes to hours, which maybe mediated by modifications of molecules involved in synaptic functions. LTM lasts for days or longer, and may be due to the formation of new synapses or restructuring of existing synapses. LTM, but not STM, requires gene transcription and synthesis of proteins. CREB (cyclic-AMP Responsive Element Binding Protein) is one of the candidates plays an important role for enhancement of some types of LTM. CREB, a family of transcription factors, regulates the transcription of genes containing cAMP Responsive Elements (CRE). CRE is a nucleotide sequence often found in the promoter regions of genes that are binding sites for CREB.
Using a beta-lactamase reporter-gene under control of cAMP responsive element, a cell-based assay [CellSensor(TM) CRE-bla CHO developed by Invitrogen Corp.] was used to measure forskolin-induced signaling. Library compounds were measured for their ability to modulate positively or negatively the action of EC10 NKH 477, a water soluble forskolin, on reporter gene activity. Compounds were screened in a titration series in 1536-well format. Positive and negative modulators were identified based on the AC50 values derived from the screening data.
NCGC Assay Protocol Summary
2000 cells/5uL in Opti-MEM medium containing 0.5% dialyzed FBS, 0.1 mM NEAA, 1 mM sodium pyruvate and 10 mM HEPES was dispensed into 1536-well plates and cells were cultured at 37 degrees Celsius overnight. […] And then the plates were incubated at 37 degrees Celsius for 3 hours. 1 uL of CCF4-dye mixture was added to each well. After incubated at room temperature for 2 hours the plates were measured on an EnVision plate reader at Excitation 405nm, Emission1=460nm and Emission 2=530nm. The %Activity was determined from the ratio of 460nm/530nm.
Keywords: NIH Roadmap, MLSCN, MLSMR, qHTS, NCGC, CRE, beta-lactamase reporter-gene assay.

Where [1] appears, read: at 38.2 µM (top of the series) unless noted.

“And” between values parts separate entries of the source, which are not always exact repeats. Equal values may be shown once. The list shows a part of the results, in another mix than the full data. Inconclusive results are not listed. The source made the active and inactive calls. Calls come from the whole dose curve; as a rule, active = well fitted activation curve with a large enough effect in the signal ratio, with a control signal flat (not every such curve was filed as active); inconclusive = small, poorly fitted or top-dose-only effect, or effect the other way, or a change in a side signal; inactive = flat fitted curve, though single readings scatter; the % refers to the signal ratio.

Consider `c1nnnn1CCn1cnnn1`, for which the activity change, negative = inhibition under setting [1] is inactive: -6.13%.

With `O=P(Nc1nccs1)(c1ccccc1)c1ccccc1`, under setting [1], the activity change, negative = inhibition is inactive: 1.14%.

Turning to `C[C@@H](O)COc1ccc([As](=O)(O)O)cc1N`, under setting [1], the activity change, negative = inhibition is inactive: 2.43% [at 7.6 µM].

Regarding `CN1CCC[C@H](OC(=O)C(c2ccccc2)c2ccccc2)C1`, the activity change, negative = inhibition under setting [1] is inactive: 3.5% [at 7.6 µM].

On to `[N-]=[N+]=Nc1ccc([As](=O)(O)O)cc1`, for which the activity change, negative = inhibition under setting [1] was inactive: 8.14% [at 7.6 µM].

As to `O=C(OC1CN2CCC1CC2)c1cccc(Cl)c1` (centres undefined), under setting [1], the activity change, negative = inhibition was inactive: -12.5%.

With `COC(=O)c1cc2c(s1)N=C(c1ccccc1)N(C)P2(=O)N1CCOCC1` (centres undefined), the activity change, negative = inhibition under setting [1] is inactive: -8.7%.

Consider `O=P1(Nc2nc3ccc(Cl)cc3s2)COc2ccccc2O1` (centres undefined), for which, under setting [1], the activity change, negative = inhibition was inactive: -6.1%.

Consider `O=[N+]([O-])c1ccc(C[As](=O)(O)O)cc1`, for which the activity change, negative = inhibition under setting [1] is inactive: 7.73% [at 7.6 µM].

`CN(C(=O)Cc1ccc(Cl)c(Cl)c1)[C@H]1CCCC[C@@H]1N1CCCC1`: the activity change, negative = inhibition under setting [1] was inactive: -15% and inactive: -17.9%.

As to `C(Cc1nn[nH]n1)c1nn[nH]n1`, the activity change, negative = inhibition under setting [1] was inactive: -0.38% [at 7.6 µM].

For the compound `[N-]=[N+]=NCC(O)CN=[N+]=[N-]` (centres undefined), the activity change, negative = inhibition under setting [1] was inactive: 0.115% [at 7.6 µM].

In the case of `CN(C(=O)Cc1ccccc1)[C@@H]1CC[C@@]2(CCCO2)C[C@H]1N1CCCC1`, the activity change, negative = inhibition under setting [1] was inactive: -9.01%.

As for `O=C(COc1ccccc1)OC1CN2CCC1CC2` (centres undefined), the activity change, negative = inhibition under setting [1] is inactive: -12.2%.

As for `O=C(O)[C@@H](O)c1ccc([As](=O)(O)O)cc1`, the activity change, negative = inhibition under setting [1] was inactive: 6.96% [at 7.6 µM].

For `CN(N=O)C(=N)N[N+](=O)[O-]`, under setting [1], the activity change, negative = inhibition is inactive: 14.9%.

As to `O=[As]c1ccc(S(=O)(=O)NCCO)cc1` (centres undefined), the activity change, negative = inhibition under setting [1] is inactive: 1.3% [at 7.6 µM].

In the case of `[N-]=[N+]=NCC(N)=O`, the activity change, negative = inhibition under setting [1] is inactive: 7.56% [at 7.6 µM].

`NC(=O)Nc1cc([As](=O)(O)O)cc(I)c1O`: the activity change, negative = inhibition under setting [1] is inactive: -1.87% [at 7.6 µM].

For the compound `O=C(OC1CN2CCC1CC2)C12CC3CC(CC(C3)C1)C2` (centres undefined), the activity change, negative = inhibition under setting [1] was inactive: 6.56%.

For `CN(C(=O)Cc1ccc(Cl)c(Cl)c1)[C@@H]1CC[C@@]2(CCCO2)C[C@H]1N1CCCC1`, the activity change, negative = inhibition under setting [1] was inactive: -3.73%.

With `NS(=O)(=O)Cc1ccc([As](=O)(O)O)cc1`, the activity change, negative = inhibition under setting [1] was inactive: 3.36% [at 7.6 µM].

Consider `O=C(CC(=O)c1ccccc1)O[C@H]1CN2CCC1CC2`, for which the activity change, negative = inhibition under setting [1] is inactive: -5.86% [at 7.6 µM].

For the compound `O=[As](O)(O)c1ccc([As](=O)(O)O)cc1`, under setting [1], the activity change, negative = inhibition is inactive: 4.49% [at 7.6 µM].

For `CCOP1(=S)c2c(C)nn(CCC#N)c2N=C(c2ccccc2F)N1C` (centres undefined), the activity change, negative = inhibition under setting [1] was inactive: 11.8%.

Consider `CCOP1(=S)c2c(C)nn(CCC#N)c2N=C(c2ccc(F)cc2)N1C` (centres undefined), for which the activity change, negative = inhibition under setting [1] was inactive: 20.2%.

For `NC(=O)Nc1ccc([As](=O)(O)O)cc1`, the activity change, negative = inhibition is inactive: -0.394% (at 17.1 µM (top of the series)) and inactive: -1.54% (at 38.2 µM (top of the series)).

In the case of `Cc1nn(-c2ccccc2)c2c1P(=O)(N1CCOCC1)N(C)C(c1ccccc1)=N2` (centres undefined), under setting [1], the activity change, negative = inhibition was inactive: -7.62%.

On to `O=P1(Nc2ncccn2)COc2ccccc2OC1`, for which the activity change, negative = inhibition under setting [1] was inactive: 12.2%.

For `Clc1n[nH]nc1-c1nn[nH][15n]1`, under setting [1], the activity change, negative = inhibition is inactive: -0.781%.

Turning to `O=P1(Nc2ccccn2)COc2ccccc2OC1`, the activity change, negative = inhibition under setting [1] is inactive: 4.41%.

Turning to `CN(CCCl)Cc1cc(Cl)c(NC2=NCCN2)c(Cl)c1`, the activity change, negative = inhibition under setting [1] was inactive: -3.26%.

Regarding `CN(C(=O)Cc1ccc(Cl)c(Cl)c1)[C@@H]1CCCC[C@H]1N1CCCC1`, the activity change, negative = inhibition under setting [1] is inactive: -2.36% [middle of 4 runs].
